Data on 2 molecules can be found in patent publication US20260226020A1, “Nav 1.7 AND/OR Nav 1.8 BLOCKING HYDRAZIDES, PROCESSES FOR THE PREPARATION THEREOF, COMPOSITIONS, USES, METHODS OF TREATMENT USING SAME AND KITS” (Eurofarma Laboratórios S.A., priority 2023, published 2026).

The chains behind the UniProt entries cited, without tags or fusion partners.
UniProt Q9Y5Y9, whole entry: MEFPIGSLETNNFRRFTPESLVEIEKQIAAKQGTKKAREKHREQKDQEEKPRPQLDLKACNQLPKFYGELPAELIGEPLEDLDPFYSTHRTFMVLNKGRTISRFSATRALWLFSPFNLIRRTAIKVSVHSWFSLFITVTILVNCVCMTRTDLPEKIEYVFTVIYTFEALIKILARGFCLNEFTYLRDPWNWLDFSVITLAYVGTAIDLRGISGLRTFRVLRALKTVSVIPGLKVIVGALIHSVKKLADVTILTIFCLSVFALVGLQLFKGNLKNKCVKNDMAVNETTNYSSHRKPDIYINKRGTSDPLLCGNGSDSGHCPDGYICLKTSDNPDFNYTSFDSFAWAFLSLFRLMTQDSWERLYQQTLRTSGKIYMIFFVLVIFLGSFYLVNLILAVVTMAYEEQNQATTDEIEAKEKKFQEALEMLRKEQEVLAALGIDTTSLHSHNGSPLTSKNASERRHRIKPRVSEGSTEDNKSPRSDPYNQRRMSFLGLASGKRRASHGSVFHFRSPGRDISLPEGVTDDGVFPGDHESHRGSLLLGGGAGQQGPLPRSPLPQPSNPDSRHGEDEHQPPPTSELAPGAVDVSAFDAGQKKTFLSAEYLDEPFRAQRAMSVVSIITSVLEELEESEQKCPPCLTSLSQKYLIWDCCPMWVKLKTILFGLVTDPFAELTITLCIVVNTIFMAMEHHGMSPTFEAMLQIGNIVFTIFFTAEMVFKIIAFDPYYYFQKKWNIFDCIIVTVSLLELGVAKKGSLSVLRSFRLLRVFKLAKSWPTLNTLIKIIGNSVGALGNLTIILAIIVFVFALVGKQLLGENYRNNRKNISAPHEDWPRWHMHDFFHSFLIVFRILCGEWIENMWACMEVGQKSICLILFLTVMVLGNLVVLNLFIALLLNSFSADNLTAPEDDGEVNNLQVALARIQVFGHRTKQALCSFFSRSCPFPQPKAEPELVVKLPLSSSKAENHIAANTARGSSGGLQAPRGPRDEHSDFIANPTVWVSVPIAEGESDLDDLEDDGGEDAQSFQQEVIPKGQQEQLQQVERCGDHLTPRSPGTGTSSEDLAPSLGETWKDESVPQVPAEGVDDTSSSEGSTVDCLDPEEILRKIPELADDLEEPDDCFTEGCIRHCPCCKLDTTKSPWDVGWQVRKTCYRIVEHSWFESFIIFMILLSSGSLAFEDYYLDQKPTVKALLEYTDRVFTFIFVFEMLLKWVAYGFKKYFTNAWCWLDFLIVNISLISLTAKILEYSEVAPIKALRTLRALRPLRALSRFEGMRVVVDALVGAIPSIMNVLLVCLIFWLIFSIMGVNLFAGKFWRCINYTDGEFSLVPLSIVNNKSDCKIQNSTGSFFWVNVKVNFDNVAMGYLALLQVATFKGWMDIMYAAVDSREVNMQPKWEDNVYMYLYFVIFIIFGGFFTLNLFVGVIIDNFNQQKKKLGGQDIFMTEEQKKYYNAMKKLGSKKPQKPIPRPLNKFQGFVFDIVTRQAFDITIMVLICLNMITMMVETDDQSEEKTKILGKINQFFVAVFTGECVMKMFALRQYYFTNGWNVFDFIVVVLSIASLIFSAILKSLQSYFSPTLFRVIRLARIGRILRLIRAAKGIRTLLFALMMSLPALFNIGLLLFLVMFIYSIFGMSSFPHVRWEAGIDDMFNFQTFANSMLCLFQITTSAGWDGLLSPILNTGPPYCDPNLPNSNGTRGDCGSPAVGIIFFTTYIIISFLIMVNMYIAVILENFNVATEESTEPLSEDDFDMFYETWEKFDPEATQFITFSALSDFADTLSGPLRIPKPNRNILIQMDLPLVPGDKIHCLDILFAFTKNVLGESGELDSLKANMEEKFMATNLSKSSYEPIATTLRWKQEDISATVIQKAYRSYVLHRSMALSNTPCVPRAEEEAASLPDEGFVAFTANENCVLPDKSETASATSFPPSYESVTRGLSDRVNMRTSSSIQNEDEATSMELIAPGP
UniProt Q15858, whole entry: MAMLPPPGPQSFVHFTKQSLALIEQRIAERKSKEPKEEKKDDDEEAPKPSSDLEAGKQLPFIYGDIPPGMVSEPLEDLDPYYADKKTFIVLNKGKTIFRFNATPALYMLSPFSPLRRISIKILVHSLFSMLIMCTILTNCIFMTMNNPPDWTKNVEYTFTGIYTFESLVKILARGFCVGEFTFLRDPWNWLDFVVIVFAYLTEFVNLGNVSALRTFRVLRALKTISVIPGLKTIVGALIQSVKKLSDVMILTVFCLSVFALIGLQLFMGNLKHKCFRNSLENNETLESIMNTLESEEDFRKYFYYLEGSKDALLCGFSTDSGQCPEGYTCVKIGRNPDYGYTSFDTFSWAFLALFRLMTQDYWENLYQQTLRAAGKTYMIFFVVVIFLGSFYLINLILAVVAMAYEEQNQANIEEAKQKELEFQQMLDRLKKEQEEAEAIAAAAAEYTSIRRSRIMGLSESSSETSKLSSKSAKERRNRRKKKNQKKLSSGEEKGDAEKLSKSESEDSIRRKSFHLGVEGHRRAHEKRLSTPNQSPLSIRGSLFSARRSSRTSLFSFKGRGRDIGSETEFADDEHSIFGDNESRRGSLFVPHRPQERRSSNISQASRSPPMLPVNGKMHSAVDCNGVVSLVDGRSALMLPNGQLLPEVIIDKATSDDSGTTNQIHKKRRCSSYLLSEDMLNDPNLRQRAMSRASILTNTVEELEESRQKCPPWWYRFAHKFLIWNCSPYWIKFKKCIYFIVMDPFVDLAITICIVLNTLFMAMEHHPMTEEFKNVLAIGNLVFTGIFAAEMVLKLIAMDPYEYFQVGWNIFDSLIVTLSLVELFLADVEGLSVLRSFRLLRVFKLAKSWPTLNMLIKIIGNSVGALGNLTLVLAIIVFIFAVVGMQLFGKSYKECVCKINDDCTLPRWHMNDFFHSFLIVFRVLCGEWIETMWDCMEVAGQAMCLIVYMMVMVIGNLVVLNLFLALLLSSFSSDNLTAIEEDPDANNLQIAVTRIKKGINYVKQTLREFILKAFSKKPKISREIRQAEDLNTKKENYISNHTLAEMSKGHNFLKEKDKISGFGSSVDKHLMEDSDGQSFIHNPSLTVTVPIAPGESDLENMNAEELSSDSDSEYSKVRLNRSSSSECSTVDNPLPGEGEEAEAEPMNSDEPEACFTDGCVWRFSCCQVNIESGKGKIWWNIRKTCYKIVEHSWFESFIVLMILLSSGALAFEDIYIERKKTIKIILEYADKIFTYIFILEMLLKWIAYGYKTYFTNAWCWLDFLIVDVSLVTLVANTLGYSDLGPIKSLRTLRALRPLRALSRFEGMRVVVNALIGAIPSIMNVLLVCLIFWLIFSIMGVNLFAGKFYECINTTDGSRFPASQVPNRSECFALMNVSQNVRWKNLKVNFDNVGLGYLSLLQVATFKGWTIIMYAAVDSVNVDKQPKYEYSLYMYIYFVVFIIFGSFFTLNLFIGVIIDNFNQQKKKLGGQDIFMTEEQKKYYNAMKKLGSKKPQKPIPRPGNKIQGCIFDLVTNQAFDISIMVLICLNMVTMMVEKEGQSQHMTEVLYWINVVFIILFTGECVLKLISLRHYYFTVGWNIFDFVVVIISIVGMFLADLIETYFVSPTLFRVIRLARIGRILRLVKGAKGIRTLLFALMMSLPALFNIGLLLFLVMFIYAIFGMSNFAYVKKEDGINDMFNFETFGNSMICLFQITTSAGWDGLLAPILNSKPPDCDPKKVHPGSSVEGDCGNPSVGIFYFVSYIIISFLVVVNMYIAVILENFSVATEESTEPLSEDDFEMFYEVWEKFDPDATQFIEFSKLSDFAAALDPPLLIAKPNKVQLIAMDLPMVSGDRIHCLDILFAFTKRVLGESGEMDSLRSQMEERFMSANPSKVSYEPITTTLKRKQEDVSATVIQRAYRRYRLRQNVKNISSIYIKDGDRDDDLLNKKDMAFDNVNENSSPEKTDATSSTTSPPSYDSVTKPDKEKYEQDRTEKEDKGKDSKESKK

In assay [1] the target is human sodium channels Nav 1.8 (Homo sapiens, UniProt Q9Y5Y9). As to the kind of experiment: Automated whole-cell voltage-clamp (ScreenPatch 384P) sodium current block in CHO cells expressing Nav 1.8. As to conditions: read-out: Nav1.8 IC50; CHO cells stably expressing human Nav 1.8; whole cell patch clamp, inactivation step -40 mV 8 s, test step 10 mV (TP1A), room temperature; mean where tested in two or more assays. How it is done: (§1) Biological assays were performed on Chinese hamster ovary (CHO) cells that express human sodium channels Nav 1.8 or Nav 1.7 in a stable manner.
(§2) The experimental protocol voltage-clamp using the whole cell configuration was established on the automated ScreenPatch© 384P platform (SP384PE, Nanion Technologies, Livingston, NJ) and the results were recorded with a Nanion 384-well Patch Clamp chip (NPC) (Nanion Technologies, Livingston, NJ).
(§3) Formula I compounds were diluted in eight concentrations in the extracellular solution composed of saline saline solution, buffered with HEPES (mM): NaCl, 137; KCl, 4; CaCl2, 3.8; MgCl2, 1; HEPES, 10; Glucose, 10; pH 7.4. […]
(§4) The protocol was repeated at a frequency of 0.05 Hz and the amplitude of the current was quantified throughout the recording of the TP1A phase. The variation in the amplitude of the peak current was evaluated according to the formula described below, after exposing the cells expressing the channels to each concentration of the different compounds: […]
(§5) wherein [Test] represents the concentration of the molecule evaluated, CI50 is the concentration of the compound that generates half of the maximum inhibition, N is the Hill coefficient, and % Block′ is the percentage of sodium channel current (Nav 1.8 and Nav 1.7) blocked at each concentration of the molecule evaluated. […]
In general terms: Patch clamp records ionic current or voltage across a cell membrane.

In assay [2] the target is human sodium channels Nav 1.7 (Homo sapiens, UniProt Q15858). As to the kind of experiment: Automated whole-cell voltage-clamp (ScreenPatch 384P) sodium current block in CHO cells expressing Nav 1.7. As to conditions: read-out: Nav1.7 IC50; CHO cells stably expressing human Nav 1.7; whole cell patch clamp, inactivation step -40 mV 8 s, test step 0 mV (TP1A), room temperature; mean where tested in two or more assays. On the procedure: as §1, §2, §3, §4, §5

As a reminder, the pIC50 is the negative decadic logarithm of the IC50, by convention in mol/L.

The structures appear in SMILES notation. pIC50: −log10 of the molar value.

On to `COc1cc(CNNC(=O)c2cncc(-c3ccc(OC(C)C)nc3)n2)cc(OC)c1`, for which the pIC50 was over 6.30 in assay [1] and 6.00 to 6.30 in assay [2].
On to `COc1cc(CNNC(=O)c2nccc(-c3ccc(Cl)cc3)n2)cc(OC)c1`, for which the pIC50 in assay [1] and in assay [2] was under 6.00 each time.
